Laboratory results as given in patent US11419921B2, “Methods of treating neurological disorders” (EnClear Therapies, Inc., priority 2018, dated 2022).

System: iCell® motor neurons
Assay: Toxicity of (GR)10, untreated or protease-treated, on iCell motor neurons
Format: cell-based
Method: 200 μM of (GR)10 were diluted in human cerebrospinal fluid (CSF) and 400 μL were applied to each immobilized proteases. The reaction was incubated 5 minutes at room temperature with end-to-end mixing. Columns were spun down 1 minute at 1,000 Xg to recover digested GR dipeptides. Columns were washed with 12 resin volumes of PBS. The procedure was repeated with 60 minutes digestion time. 100 μL of each samples were transferred to a clean tube, flash-frozen and subsequently used for LC/MS quantification of GR repeats of different lengths. The remaining 300 μL of each samples were flash-frozen and used to assess neuron toxicity.
300 μL of CSF were applied to each immobilized proteases and incubated 60 minutes at room temperature with end-to-end mixing. Columns were spun down 1 minute at 1,000 Xg to recover treated CSF. Samples were flash-frozen and subsequently used to test neuron toxicity.
This example describes the reduced toxicity of (GR)10 on in vitro neuronal cells by digestion of (GR)10 with proteases.

Compound: N=C(N)NCCC[C@H](NC(=O)CNC(=O)[C@H](CCCNC(=N)N)NC(=O)CNC(=O)[C@H](CCCNC(=N)N)NC(=O)CNC(=O)[C@H](CCCNC(=N)N)NC(=O)CNC(=O)[C@H](CCCNC(=N)N)NC(=O)CNC(=O)[C@H](CCCNC(=N)N)NC(=O)CNC(=O)[C@H](CCCNC(=N)N)NC(=O)CNC(=O)[C@H](CCCNC(=N)N)NC(=O)CNC(=O)[C@H](CCCNC(=N)N)NC(=O)CNC(=O)[C@H](CCCNC(=N)N)NC(=O)CN)C(=O)O [(GR)10, reference compound]
- EC50: ~50 µM
- Toxicity when (GR)10 dissolved in DMSO instead of water (iCell motor neurons): further enhanced
